How the values were obtained:
Assay type in all cases: physicochemical
[1] = Krafft and cloud point temperatures at reservoir conditions (IFT cell, 6,000 psi); conditions: about 0.1 wt % in blank brine; about 6,000 psi
Method: The cloud points of certain nonionic surfactants were measured at high pressure (about 6,000 psi) and temperature. […] (center panel) and about 99.9° C. (right panel), at a pressure of about 6,000 psi.
(right panel), at a pressure of about 6,000 psi.

[2] = IFT between surfactant solutions and reservoir crude oil at ambient conditions (spinning drop); conditions: ~0.1 wt % in blank brine
Method: Spinning drop method: The spinning drop method was utilized to measure ultra-low IFT values. The instrumentation included a KRÜSS Spinning Drop Tensiometer was employed and the spinning drop method was performed as follows. A crude oil droplet was launched from a capillary plug into a capillary tube filled with the surfactant solution. While the glass capillary tube was rotating, the software-controlled instrument measured the IFT between oil and brine by analyzing the drop shape which depends on the balance between interfacial and centrifugal forces. At low rotational speeds, the IFT is the dominating force and the droplet is spherical in shape. In this case the software uses Young-Laplace equation to calculate IFT. When the angular velocity is high, the droplet is elongated (length is at least 4 times the diameter) and Vonnegut's equation is used to calculate the IFT.
(§1) Measurement of the IFT between surfactant solutions/reservoir oil at ambient conditions were first performed to, e.g., examine the impact of the hydrophobic chain length on the interfacial properties of cationic surfactants. For these measurements, a KRÜSS Spinning Drop Tensiometer was used.

[3] = Density difference between surfactant solution and crude oil; conditions: ~0.1 wt % in blank brine vs reservoir crude oil; ambient conditions
Method: Density: The density of the two phases (oil and brine; or oil and surfactant solution) was measured at atmospheric pressure and 22° C. using a DMA45 density meter from Anton Paar. The density of the two phases was also measured at reservoir conditions (120° C., 6000 psi) using an in-line density meter (DMA HPM, Anton Paar).
as §1

[4] = IFT between surfactant solutions and reservoir oil at reservoir conditions; conditions: about 100° C. and about 1,000 psi
Method: (§2) Captive/rising bubble method: The captive/rising bubble method was utilized to measure the dynamic IFT and contact angle at reservoir conditions. This method was performed as follows. The lighter phase was injected through a needle to form a bubble inside the heavier phase. The IFT between the two phases was calculated from the shape of the bubble using the Young-Laplace equation through Axisymmetric Drop Shape Analysis (ADSA). The state-of-the-art interfacial tension and contact angle (IFT/CA) apparatus adopted for the measurements is described and used by S. Saraji et al., Wettability of Supercritical Carbon Dioxide/Water/Quartz Systems: Simultaneous Measurement of Contact Angle and Interfacial Tension at Reservoir Conditions, Langmuir, 29 (2013) 6856-6866. This experimental setup can operate at elevated temperature (up to 200° C.) and pressure (up to 8000 psi). […] For contact angle measurement, a droplet was injected from the needle onto the solid substrate and monitored by capturing several images with time and analyzing them using ImageJ software.
Pendant drop method: The pendant drop method was mainly utilized when the density of the suspended phase is higher than that of the bulk phase. […] The critical micelle concentration (CMC) of cationic surfactants was measured using surface tension measurements between the surfactant solutions and air at ambient conditions. […]

[5] = Contact angle by captive bubble method; conditions: 0.1 wt % in blank brine; about 100° C. and about 1,000 psi; WWW aged MNC substrate
Method: as §2
Contact angle measurements were performed to investigate, e.g., the effect of wettability alteration on spontaneous imbibition. The contact angles were measured in the IFT cell on MNC aged rock substrates (WWW systems) using the captive bubble method at about 100° C. and about 1,000 psi. […]

[6] = Microemulsion phase behavior of surfactant solution/crude oil; conditions: about 0.1 wt % in blank brine/crude oil; about 120° C.
Method: Microemulsion phase behavior: The microemulsion phase behavior of surfactants with different structures was investigated with respect to temperature. The effect of surfactant hydrophobic chain length on phase behavior was examined at ambient temperature (about 22° C.) and at elevated temperature (about 80° C.). For these experiments, glass pipettes were filled with brine/crude oil at a ratio of about 1:1 or surfactant solution/crude oil at a ratio of about 1:1. The pipettes were then sealed with a torch and shaken at the speed of about 250 rpm for about 24 hours (h). The pipettes were then monitored for several days and images were recorded.
Microemulsion phase behavior tests can generally be utilized to characterize surfactant stability. The phase behavior of surfactants can depend on distinct parameters such as temperature, surfactant concentration, and/or brine salinity. The effect of temperature on phase behavior was systematically investigated for various surfactants. Here, the phase behavior test was first performed on a pipette containing blank brine and the crude oil.
FIG. 13 is a series of exemplary images showing the phase behavior of cationic surfactants with a chloride head—TOAC, DTAC, CTAC, and TSAC—at ambient temperatures (left panel) and at about 80° C. (right panel). […]

Poly (ethylene glycol) tridecyl ether (n = 18) [POE 18]
cloud point [1]: about 47.1 °C
γ (interfacial tension surfactant solution/reservoir oil) [2]: 0.715 mN/m
Δρ (change in density) [3]: 0.3822 g/mL
IFT reduction relative to the blank brine [4]: about 12 mN/m
Contact angle [5]: 127.8 °
phase behavior (in words) [6]: precipitated out of the brine solution
